These molecules were tested against opioid delta receptor (Homo sapiens, UniProt P41143) (assay: High Throughput Screening Assay for Delta-Opioid Receptor Binding). Details: percent inhibition of control binding of [3H]bremazocine (2.4 nM) at 25 μM test compound; cloned human receptor, CHO cell membranes.
With `CCCN1CCC(N(c2ccc(C(=O)N(CC)CC)cc2)c2cccc(OC)c2)CC1.O=C(O)/C=C/C(=O)O` the “% I @ 25 μM” value was 97%.
For `CCCN1CCC(N(c2ccc(C(=O)N(CC)CC)cc2)c2cccc(OC(C)=O)c2)CC1.Cl`, the “% I @ 25 μM” value was 100%.
With `CCCN1CCC(N(c2ccccc2)c2ccc(C(=O)N(CC)CC)cc2)CC1.O=C(O)/C=C/C(=O)O` the “% I @ 25 μM” value was 94%.
